Source: paper PMC10278071 (ACS Chemical Biology, 2023)

Biological target: catalytic domain of human DNMT3A ([…]) (human)
Assay: SEC-MALS

binding result: binds
B1: catalytic-like domain of DNMT3L (residues 179–379) (domain or fragment, human, UniProt Q9UJW3 179-379, looked up)
chain: FETVPVWRRQPVRVLSLFEDIKKELTSLGFLESGSDPGQLKHVVDVTDTVRKDVEEWGPFDLVYGATPPLGHTCDRPPSWYLFQFHRLLQYARPKPGSPRPFFWMFVDNLVLNKEDLDVASRFLEMEPVTIPDVHGGSLQNAVRVWSNIPAIRSRHWALVSEEELSLLAQNKQSSKLAAKWPTKLVKNCFLPLREYFKYFS
